Target: T1, Cytochrome P450 11B2, mitochondrial (Homo sapiens, UniProt P19099)
T1 sequence (P19099 whole entry): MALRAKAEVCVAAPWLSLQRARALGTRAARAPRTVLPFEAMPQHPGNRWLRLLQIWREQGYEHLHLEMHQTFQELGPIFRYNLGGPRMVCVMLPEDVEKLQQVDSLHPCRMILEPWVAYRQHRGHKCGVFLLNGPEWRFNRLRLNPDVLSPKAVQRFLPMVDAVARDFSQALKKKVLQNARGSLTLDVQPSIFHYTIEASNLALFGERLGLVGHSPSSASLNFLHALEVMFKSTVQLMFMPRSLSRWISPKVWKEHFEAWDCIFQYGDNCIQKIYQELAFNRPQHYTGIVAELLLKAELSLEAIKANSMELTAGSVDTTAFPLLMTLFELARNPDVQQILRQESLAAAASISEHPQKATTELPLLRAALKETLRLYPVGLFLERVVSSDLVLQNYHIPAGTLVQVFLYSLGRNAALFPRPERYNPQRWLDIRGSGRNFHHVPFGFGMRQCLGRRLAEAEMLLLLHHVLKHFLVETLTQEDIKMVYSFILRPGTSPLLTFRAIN
Test: Inhibition of human CYP11B2 expressed in hamster V79MZh cells using [1,2-3H]-11-deoxycorticosterone as substrate
Format: cell-based
Summary of the method: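 V79MZh hamster fibroblasts expressing human CYP11B1 or CYP11B2 were incubated with [1,2-3H]-11-deoxycorticosterone (100 nM) plus inhibitor at a range of concentrations. […] The selectivity factor is IC50(CYP11B2)/IC50(CYP11B1).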

IC50: 0.042 µM
Structure (SMILES): CC(C)(C(=O)c1cccnc1)c1cccnc1 [METYRAPONE]
